Laboratory results taken from US9725465B2, “Biaryl acetamide compounds and methods of use thereof” (Ambit Biosciences Corporation, priority 2013, dated 2017).
pIC50: −log10 of the molar value.

Experiments:
[1] = biological target: FLT3-ITD-F691L (Homo sapiens (Human), UniProt P36888, F691L/INS600HVDFREYEYD); experiment: pFLT3 MSD assay, Ba/F3 FLT3-ITD-F691L; format: cell-based; conditions: Ba/F3 FLT3-ITD-F691L cells, 2 hours, read-out: BaF3-FLT3-ITD-F691L pFlt3 IC50
[2] = biological target: FLT3-ITD-D835V (Homo sapiens (Human), UniProt P36888, D835V/INS600HVDFREYEYD); experiment: pFLT3 MSD assay, Ba/F3 FLT3-ITD-D835V; format: cell-based; conditions: Ba/F3 FLT3-ITD-D835V cells, 2 hours, read-out: BaF3-FLT3-ITD-D835V pFlt3 IC50

COc1ccc2cc(-c3ccc(CC(=O)Nc4cc(C5(C(F)(F)F)CC5)on4)cc3)cnc2c1 [Example 2, 2-(4-(7-methoxyquinolin-3-yl)phenyl)-N-(5-(1-(trifluoromethyl)cyclopropyl)isoxazol-3-yl)acetamide]
pIC50 [1]: > 8.00 | pIC50 [2]: 7.30 to 7.70

O=C(Cc1ccc(-c2cnc3[nH]ccc3n2)cc1)Nc1cc(C2(C(F)(F)F)CC2)on1 [Example 3, 2-(4-(5H-pyrrolo[2,3-b]pyrazin-2-yl)phenyl)-N-(5-(1-(trifluoromethyl)cyclopropyl)isoxazol-3-yl)acetamide]
pIC50 [1]: > 8.00 | pIC50 [2]: > 8.00

O=C(Cc1ccc(-c2cnc3ccsc3c2)cc1)Nc1cc(C2(C(F)(F)F)CC2)on1 [Example 10, 2-(4-(thieno[3,2-b]pyridin-6-yl)phenyl)-N-(5-(1-(trifluoromethyl)cyclopropyl)isoxazol-3-yl)acetamide]
pIC50 [1]: > 8.00 | pIC50 [2]: > 8.00

O=C(Cc1ccc(-c2cnc3cccnc3c2)cc1)Nc1cc(C2(C(F)(F)F)CC2)on1 [Example 11, 2-(4-(1,5-naphthyridin-3-yl)phenyl)-N-(5-(1-(trifluoromethyl)cyclopropyl)isoxazol-3-yl)acetamide]
pIC50 [1]: > 8.00 | pIC50 [2]: 7.70 to 8.00

O=C(Cc1ccc(-c2cnc3ccncc3c2)cc1)Nc1cc(C2(C(F)(F)F)CC2)on1 [Example 12, 2-(4-(1,6-naphthyridin-3-yl)phenyl)-N-(5-(1-(trifluoromethyl)cyclopropyl)isoxazol-3-yl)acetamide]
pIC50 [1]: > 8.00 | pIC50 [2]: 7.70 to 8.00

COc1cc(OC)c2cc(-c3ccc(CC(=O)Nc4cc(C5(C(F)(F)F)CC5)on4)cc3)cnc2c1 [Example 13, 2-(4-(5,7-dimethoxyquinolin-3-yl)phenyl)-N-(5-(1-(trifluoromethyl)cyclopropyl)isoxazol-3-yl)acetamide]
pIC50 [1]: > 8.00 | pIC50 [2]: 7.70 to 8.00

O=C(Cc1ccc(-c2cnc3[nH]cnc3n2)cc1)Nc1cc(C2(C(F)(F)F)CC2)on1 [Example 14, 2-(4-(1H-imidazo[4,5-b]pyrazin-5-yl)phenyl)-N-(5-(1-(trifluoromethyl)cyclopropyl)isoxazol-3-yl)acetamide]
pIC50 [1]: 7.70 to 8.00 | pIC50 [2]: 7.30 to 7.70

COc1cc2ncc(-c3ccc(CC(=O)Nc4cc(C(C)(C)CO)on4)cc3)nc2cc1OC [Example 16, 2-(4-(6,7-dimethoxyquinoxalin-2-yl)phenyl)-N-(5-(1-hydroxy-2-methylpropan-2-yl)isoxazol-3-yl)acetamide]
pIC50 [1]: < 7.30 | pIC50 [2]: < 7.30

O=C(Cc1ccc(-c2cnc3[nH]c4c(c3n2)CCCC4)cc1)Nc1cc(C2(C(F)(F)F)CC2)on1 [Example 17, 2-(4-(6,7,8,9-tetrahydro-5H-pyrazino[2,3-b]indol-2-yl)phenyl)-N-(5-(1-(trifluoromethyl)cyclopropyl)isoxazol-3-yl)acetamide]
pIC50 [1]: 7.30 to 7.70 | pIC50 [2]: > 8.00

O=C(Cc1ccc(-c2cnc3sccc3c2)cc1)Nc1cc(C2(C(F)(F)F)CC2)on1 [Example 19, 2-(4-(thieno[2,3-b]pyridin-5-yl)phenyl)-N-(5-(1-(trifluoromethyl)cyclopropyl)isoxazol-3-yl)acetamide]
pIC50 [1]: 7.30 to 7.70 | pIC50 [2]: < 7.30

Cc1nc2cc(-c3ccc(CC(=O)Nc4cc(C5(C(F)(F)F)CC5)on4)cc3)cnc2[nH]1 [Example 20, 2-(4-(2-methyl-3H-imidazo[4,5-b]pyridin-6-yl)phenyl)-N-(5-(1-(trifluoromethyl)cyclopropyl)isoxazol-3-yl)acetamide]
pIC50 [1]: > 8.00 | pIC50 [2]: 7.70 to 8.00

Cn1ncc2ncc(-c3ccc(CC(=O)Nc4cc(C5(C(F)(F)F)CC5)on4)cc3)cc21 [Example 21, 2-(4-(1-methyl-1H-pyrazolo[4,3-b]pyridin-6-yl)phenyl)-N-(5-(1-(trifluoromethyl)cyclopropyl)isoxazol-3-yl)acetamide]
pIC50 [1]: > 8.00 | pIC50 [2]: > 8.00

COc1ccc2nc(-c3ccc(CC(=O)Nc4cc(C5(C(F)(F)F)CC5)on4)cc3)cnc2c1 [Example 22, 2-(4-(6-methoxyquinoxalin-2-yl)phenyl)-N-(5-(1-(trifluoromethyl)cyclopropyl)isoxazol-3-yl)acetamide]
pIC50 [1]: > 8.00 | pIC50 [2]: > 8.00

COc1ccc2ncc(-c3ccc(CC(=O)Nc4cc(C5(C(F)(F)F)CC5)on4)cc3)nc2c1 [Example 23, 2-(4-(7-methoxyquinoxalin-2-yl)phenyl)-N-(5-(1-(trifluoromethyl)cyclopropyl)isoxazol-3-yl)acetamide]
pIC50 [1]: > 8.00 | pIC50 [2]: 7.70 to 8.00

COCCOc1ccc2nc(-c3ccc(CC(=O)Nc4cc(C5(C(F)(F)F)CC5)on4)cc3)cnc2c1 [Example 24, 2-(4-(6-(2-methoxyethoxy)quinoxalin-2-yl)phenyl)-N-(5-(1-(trifluoromethyl)cyclopropyl)isoxazol-3-yl)acetamide]
pIC50 [1]: > 8.00 | pIC50 [2]: > 8.00

CC(C)(C)c1cc(NC(=O)Cc2ccc(-c3cnc4[nH]ccc4c3)cc2)no1 [Example 25, 2-(4-(1H-pyrrolo[2,3-b]pyridin-5-yl)phenyl)-N-(5-(tert-butyl)isoxazol-3-yl)acetamide]
pIC50 [1]: > 8.00 | pIC50 [2]: > 8.00

CC(C)(c1cc(NC(=O)Cc2ccc(-c3cnc4[nH]ccc4c3)cc2)no1)C(F)(F)F [Example 26, 2-(4-(1H-pyrrolo[2,3-b]pyridin-5-yl)phenyl)-N-(5-(1,1,1-trifluoro-2-methylpropan-2-yl)isoxazol-3-yl)acetamide]
pIC50 [1]: > 8.00 | pIC50 [2]: > 8.00

CC(C)(C)c1cc(NC(=O)Cc2ccc(-c3cnc4[nH]ccc4c3)cc2F)no1 [Example 27, N-(5-(tert-butyl)isoxazol-3-yl)-2-(2-fluoro-4-(1H-pyrrolo[2,3-b]pyridin-5-yl)phenyl)acetamide]
pIC50 [1]: > 8.00 | pIC50 [2]: > 8.00

O=C(Cc1ccc(-c2cnc3[nH]ccc3c2)cc1F)Nc1cc(C2(C(F)(F)F)CC2)on1 [Example 28, 2-(2-fluoro-4-(1H-pyrrolo[2,3-b]pyridin-5-yl)phenyl)-N-(5-(1-(trifluoromethyl)cyclopropyl)isoxazol-3-yl)acetamide]
pIC50 [1]: > 8.00 | pIC50 [2]: > 8.00

CC(C)(c1cc(NC(=O)Cc2ccc(-c3cnc4[nH]ccc4c3)cc2F)no1)C(F)(F)F [Example 29, 2-(2-fluoro-4-(1H-pyrrolo[2,3-b]pyridin-5-yl)phenyl)-N-(5-(1,1,1-trifluoro-2-methylpropan-2-yl)isoxazol-3-yl)acetamide]
pIC50 [1]: > 8.00 | pIC50 [2]: > 8.00

O=C(Cc1ccc(-c2cnc3[nH]ccc3n2)cc1F)Nc1cc(C2(C(F)(F)F)CC2)on1 [Example 30, 2-(2-fluoro-4-(5H-pyrrolo[2,3-b]pyrazin-2-yl)phenyl)-N-(5-(1-(trifluoromethyl)cyclopropyl)isoxazol-3-yl)acetamide]
pIC50 [1]: > 8.00 | pIC50 [2]: > 8.00

CC(C)(C)c1cc(NC(=O)Cc2ccc(-c3cnc4[nH]ncc4c3)cc2)no1 [Example 31, 2-(4-(1H-pyrazolo[3,4-b]pyridin-5-yl)phenyl)-N-(5-(tert-butyl)isoxazol-3-yl)acetamide]
pIC50 [1]: > 8.00 | pIC50 [2]: > 8.00

CC(C)(C)c1cc(NC(=O)Cc2ccc(-c3cnc4[nH]ncc4c3)cc2F)no1 [Example 32, N-(5-(tert-butyl)isoxazol-3-yl)-2-(2-fluoro-4-(1H-pyrazolo[3,4-b]pyridin-5-yl)phenyl)acetamide]
pIC50 [1]: > 8.00 | pIC50 [2]: > 8.00

CC(C)(c1cc(NC(=O)Cc2ccc(-c3cnc4[nH]ncc4c3)cc2F)no1)C(F)(F)F [Example 34, 2-(2-fluoro-4-(1H-pyrazolo[3,4-b]pyridin-5-yl)phenyl)-N-(5-(1,1,1-trifluoro-2-methylpropan-2-yl)isoxazol-3-yl)acetamide]
pIC50 [1]: > 8.00 | pIC50 [2]: > 8.00

COc1cc(OC)c2cc(-c3ccc(CC(=O)Nc4cc(C5(C(F)(F)F)CC5)on4)c(F)c3)cnc2c1 [Example 36, 2-(4-(5,7-dimethoxyquinolin-3-yl)-2-fluorophenyl)-N-(5-(1-(trifluoromethyl)cyclopropyl)isoxazol-3-yl)acetamide]
pIC50 [1]: > 8.00 | pIC50 [2]: > 8.00

CC(C)(C)c1cc(NC(=O)Cc2ccc(-c3cnc4[nH]nc(C#N)c4c3)cc2)no1 [Example 37, N-(5-(tert-butyl)isoxazol-3-yl)-2-(4-(3-cyano-1H-pyrazolo[3,4-b]pyridin-5-yl)phenyl)acetamide]
pIC50 [1]: 7.70 to 8.00 | pIC50 [2]: 7.30 to 7.70

CC(C)(C)c1cc(NC(=O)Cc2ccc(-c3cnc4[nH]nc(Cl)c4c3)cc2)no1 [Example 38, N-(5-(tert-butyl)isoxazol-3-yl)-2-(4-(3-chloro-1H-pyrazolo[3,4-b]pyridin-5-yl)phenyl)acetamide]
pIC50 [1]: > 8.00 | pIC50 [2]: > 8.00

Cc1n[nH]c2ncc(-c3ccc(CC(=O)Nc4cc(C(C)(C)C)on4)cc3)cc12 [Example 40, N-(5-(tert-butyl)isoxazol-3-yl)-2-(4-(3-methyl-1H-pyrazolo[3,4-b]pyridin-5-yl)phenyl)acetamide]
pIC50 [1]: > 8.00 | pIC50 [2]: > 8.00

CC(C)(c1cc(NC(=O)Cc2ccc(-c3cnc4[nH]nnc4c3)cc2)no1)C(F)(F)F [Example 41, 2-(4-(3H-[1,2,3]triazolo[4,5-b]pyridin-6-yl)phenyl)-N-(5-(1,1,1-trifluoro-2-methylpropan-2-yl)isoxazol-3-yl)acetamide]
pIC50 [1]: < 7.30 | pIC50 [2]: < 7.30

COc1cc2ncc(-c3ccc(CC(=O)Nc4cc(C5(C(F)(F)F)CC5)on4)cc3F)nc2cc1OC [Example 42, 2-(4-(6,7-dimethoxyquinoxalin-2-yl)-3-fluorophenyl)-N-(5-(1-(trifluoromethyl)cyclopropyl)isoxazol-3-yl)acetamide]
pIC50 [1]: > 8.00 | pIC50 [2]: > 8.00

CC(C)(c1cc(NC(=O)Cc2ccc(-c3cnc4[nH]ncc4c3)cc2)no1)C(F)(F)F [Example 44, 2-(4-(1H-pyrazolo[3,4-b]pyridin-5-yl)phenyl)-N-(5-(1,1,1-trifluoro-2-methylpropan-2-yl)isoxazol-3-yl)acetamide]
pIC50 [1]: > 8.00 | pIC50 [2]: > 8.00
